{"source": "patent US20210022342A1", "about": "“THE USE OF SAFENERS TO IMPROVE RESISTANCE OF RICE CROP TO HERBICIDES” (Adama Agan Ltd., priority 2018, published 2021)", "key": {"[1]": {"system": "wild type rice (Non-Traited Rice)", "assay": "Quizalofop dose response with or without isoxadifen, regrowth, wild type rice", "assay_type": "in vivo", "conditions": "for Calculated effect of Safener (relative fresh weight re-growth): difference with and without isoxadifen on Non-Traited Rice", "excerpt": "(§1) The quizalofop (in rates of 0, 2, 6 18, 54 and 162 g/ha) was applied on wild type rice and herbicide resistance rice in the presence or absence of safener (isoxadifen at 100 g/ha).\n(§2) Four days after treatment, the tops of the plants were cut off so that approximately 2.5 cm of plant from the top of the soil remain. The plants were allowed to regrow for 3 days at which time the amount of regrowth was weighed by measuring the amount of fresh weight of tissue that regrew.\n(§3) The improvement in regrowth was calculated by subtracting the regrowth from a) wild type rice and wild type rice with isoxadifen; b) herbicide resistant rice; and c) herbicide resistant rice and isoxadifen.\n(§4) Calculations were done for each application rate of quizalofop. The efficacy of safener alone and mutation alone on decreasing herbicide effect/increasing herbicide resistance were calculated. The relative fresh weight re-growth is the percentage of activity (for Colby).\n(§5) The re-growth data was implemented in curve and the synergistic effect was calculated.\n(§6) in which E represents the percentage of regrowth expected for the application of safener on mutant rice crop at the defined doses of herbicide. X is the percentage of regrowth for the application of safener on wildtype rice crop at the defined doses of herbicide. Y is the percentage of regrowth for mutant rice crop at the defined doses of herbicide without safener application. When the percentage of regrowth observed for the application of safener on mutant rice crop at the defined doses of herbicide is greater than expected as calculated using the Colby equation, there is a synergistic effect."}, "[2]": {"system": "herbicide resistant rice crop (G2096S substitution, ML0831265-01493)", "assay": "Quizalofop dose response with or without isoxadifen, regrowth, herbicide resistant rice", "assay_type": "in vivo", "description": "Efficacy tests were conducted to determine the effect of quizalofop in the presence of isoxadifen (safener) on herbicide resistant rice crop (rice plants with the G2096S substitution (ML0831265-01493 (ATCC deposit PTA-12933, mutation G2096S) with a focus on synergistic effects.\nas §1, §2, §3, §4, §5, §6"}}}
{"smiles": "CCOC(=O)[C@@H](C)Oc1ccc(Oc2cnc3cc(Cl)ccc3n2)cc1", "note": "[Quizalofop, quizalofop P-ethyl]", "values": [{"measurement": "Relative fresh weight re-growth after treatment", "setting": "[1]; Non-Traited Rice, quizalofop 2 g/ha", "value": 0.54}, {"measurement": "Relative fresh weight re-growth after treatment", "setting": "[1]; Non-Traited Rice, quizalofop 6 g/ha", "value": 0.18}, {"measurement": "Relative fresh weight re-growth after treatment", "setting": "[1]; Non-Traited Rice, quizalofop 18 g/ha", "value": 0.00}, {"measurement": "Relative fresh weight re-growth after treatment", "setting": "[1]; Non-Traited Rice, quizalofop 54 g/ha", "value": 0.00}, {"measurement": "Relative fresh weight re-growth after treatment", "setting": "[1]; Non-Traited Rice, quizalofop 162 g/ha", "value": 0.00}, {"measurement": "Relative fresh weight re-growth after treatment", "setting": "[1]; Safener & Non-Traited Rice (isoxadifen 100 g/ha), quizalofop 2 g/ha", "value": 1.04}, {"measurement": "Relative fresh weight re-growth after treatment", "setting": "[1]; Safener & Non-Traited Rice (isoxadifen 100 g/ha), quizalofop 6 g/ha", "value": 0.48}, {"measurement": "Relative fresh weight re-growth after treatment", "setting": "[1]; Safener & Non-Traited Rice (isoxadifen 100 g/ha), quizalofop 18 g/ha", "value": 0.00}, {"measurement": "Relative fresh weight re-growth after treatment", "setting": "[1]; Safener & Non-Traited Rice (isoxadifen 100 g/ha), quizalofop 54 g/ha", "value": 0.00}, {"measurement": "Relative fresh weight re-growth after treatment", "setting": "[1]; Safener & Non-Traited Rice (isoxadifen 100 g/ha), quizalofop 162 g/ha", "value": 0.00}, {"measurement": "Calculated effect of Safener (relative fresh weight re-growth)", "setting": "[1]; quizalofop 2 g/ha", "value": 0.50}, {"measurement": "Calculated effect of Safener (relative fresh weight re-growth)", "setting": "[1]; quizalofop 6 g/ha", "value": 0.30}, {"measurement": "Calculated effect of Safener (relative fresh weight re-growth)", "setting": "[1]; quizalofop 18 g/ha", "value": 0.00}, {"measurement": "Calculated effect of Safener (relative fresh weight re-growth)", "setting": "[1]; quizalofop 54 g/ha", "value": 0.00}, {"measurement": "Calculated effect of Safener (relative fresh weight re-growth)", "setting": "[1]; quizalofop 162 g/ha", "value": 0.00}, {"measurement": "increase of resistance (ED50) by the safener", "setting": "[1]; wildtype rice with safener vs without", "value": 2.7, "unit": "folds"}, {"measurement": "Relative fresh weight re-growth after treatment", "setting": "[2]; Mutant & Safener (isoxadifen 100 g/ha), quizalofop 2 g/ha", "value": 0.81}, {"measurement": "Relative fresh weight re-growth after treatment", "setting": "[2]; Mutant & Safener (isoxadifen 100 g/ha), quizalofop 6 g/ha", "value": 0.85}, {"measurement": "Relative fresh weight re-growth after treatment", "setting": "[2]; Mutant & Safener (isoxadifen 100 g/ha), quizalofop 18 g/ha", "value": 1.00}, {"measurement": "Relative fresh weight re-growth after treatment", "setting": "[2]; Mutant & Safener (isoxadifen 100 g/ha), quizalofop 54 g/ha", "value": 0.62}, {"measurement": "Relative fresh weight re-growth after treatment", "setting": "[2]; Mutant & Safener (isoxadifen 100 g/ha), quizalofop 162 g/ha", "value": 0.13}, {"measurement": "Relative fresh weight re-growth after treatment", "setting": "[2]; Mutant, no safener, quizalofop 2 g/ha", "value": 0.59}, {"measurement": "Relative fresh weight re-growth after treatment", "setting": "[2]; Mutant, no safener, quizalofop 6 g/ha", "value": 0.58}, {"measurement": "Relative fresh weight re-growth after treatment", "setting": "[2]; Mutant, no safener, quizalofop 18 g/ha", "value": 0.32}, {"measurement": "Relative fresh weight re-growth after treatment", "setting": "[2]; Mutant, no safener, quizalofop 54 g/ha", "value": 0.00}, {"measurement": "Relative fresh weight re-growth after treatment", "setting": "[2]; Mutant, no safener, quizalofop 162 g/ha", "value": 0.00}]}
